The values below come from ChEMBL document CHEMBL4665871, “Small-molecule active pharmaceutical ingredients of approved cancer therapeutics inhibit human aspartate/asparagine-β-hydroxylase” (Bioorg Med Chem, 2020).

The target of assay [1] is Aspartyl/asparaginyl beta-hydroxylase (Homo sapiens) (UniProt Q12797).
Assay [2] addresses T1, Aspartyl/asparaginyl beta-hydroxylase (Homo sapiens) (UniProt Q12797).
T1 sequence (whole entry): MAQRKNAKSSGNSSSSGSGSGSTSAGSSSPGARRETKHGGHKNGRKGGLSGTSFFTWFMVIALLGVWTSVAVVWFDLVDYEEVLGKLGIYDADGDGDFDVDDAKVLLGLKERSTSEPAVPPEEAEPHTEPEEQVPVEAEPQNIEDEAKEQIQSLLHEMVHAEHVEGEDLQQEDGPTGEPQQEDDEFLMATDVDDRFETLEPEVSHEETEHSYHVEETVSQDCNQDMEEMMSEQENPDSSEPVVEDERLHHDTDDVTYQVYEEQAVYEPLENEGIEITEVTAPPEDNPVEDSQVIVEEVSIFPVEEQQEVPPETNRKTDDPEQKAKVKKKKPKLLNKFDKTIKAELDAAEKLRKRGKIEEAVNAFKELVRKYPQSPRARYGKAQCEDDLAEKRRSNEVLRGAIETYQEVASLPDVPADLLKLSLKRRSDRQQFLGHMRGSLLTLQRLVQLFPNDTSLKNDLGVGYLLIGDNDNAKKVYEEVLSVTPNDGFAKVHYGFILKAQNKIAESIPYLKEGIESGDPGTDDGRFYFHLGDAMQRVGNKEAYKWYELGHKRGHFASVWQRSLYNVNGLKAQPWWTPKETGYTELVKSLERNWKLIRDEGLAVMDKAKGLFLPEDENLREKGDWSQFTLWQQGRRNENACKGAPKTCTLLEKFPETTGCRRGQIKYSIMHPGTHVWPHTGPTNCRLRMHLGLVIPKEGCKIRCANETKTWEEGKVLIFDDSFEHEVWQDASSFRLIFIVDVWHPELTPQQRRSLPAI
This is another data set of the same source.

For BLEOMYCIN, the Tm in assay [1] was -0.8 °C.

Consider `CO[C@H](C(=O)[C@@H](O)[C@@H](C)O)[C@@H]1Cc2cc3cc(O[C@H]4C[C@@H](O[C@H]5C[C@@H](O)[C@H](O)[C@@H](C)O5)[C@H](O)[C@@H](C)O4)c(C)c(O)c3c(O)c2C(=O)[C@H]1O[C@H]1C[C@@H](O[C@H]2C[C@@H](O[C@H]3C[C@](C)(O)[C@H](O)[C@@H](C)O3)[C@@H](O)[C@@H](C)O2)[C@H](O)[C@@H](C)O1`, for which, in assay [2], the Tm worked out at 0.4 °C.
